Target: T1, PTHR-1 (species and cells not stated for the assay) (Homo sapiens (Human), UniProt Q03431 27-593)
T1 sequence: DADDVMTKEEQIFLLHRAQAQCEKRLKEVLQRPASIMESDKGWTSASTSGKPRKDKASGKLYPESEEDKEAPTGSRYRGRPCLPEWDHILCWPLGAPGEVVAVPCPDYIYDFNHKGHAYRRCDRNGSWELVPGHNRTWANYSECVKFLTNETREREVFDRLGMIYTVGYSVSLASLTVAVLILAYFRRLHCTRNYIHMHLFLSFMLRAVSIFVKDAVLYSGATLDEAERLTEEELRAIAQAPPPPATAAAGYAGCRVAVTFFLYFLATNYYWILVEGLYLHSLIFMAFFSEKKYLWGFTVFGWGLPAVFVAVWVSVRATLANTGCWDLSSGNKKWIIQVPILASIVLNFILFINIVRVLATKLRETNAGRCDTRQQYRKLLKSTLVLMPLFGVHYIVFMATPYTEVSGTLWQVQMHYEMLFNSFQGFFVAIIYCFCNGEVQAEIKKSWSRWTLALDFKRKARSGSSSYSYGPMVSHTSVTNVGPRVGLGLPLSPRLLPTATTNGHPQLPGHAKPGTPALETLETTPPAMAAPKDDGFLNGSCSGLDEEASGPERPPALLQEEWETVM
Test: cell-based or functional assay

B1: D6 bPTH(7-34) dTrp12 (peptide)
peptide: FMHNLWKWLSSMERVEWLRKKLQDVHNF
modifications: D-Trp at position 12 (PTH numbering); β3 marks lost (D6 pattern 14, 18, 22, 26, 30, 34; W printed at 14); C-terminal amide
EC50 of PTH(1-34) signaling with 1 µM inhibitor: 2.6 nM

Source: US20140378382A1 (WISCONSIN ALUMNI RESEARCH FOUNDATION, published 2014)
